# According to patent US9764004B2 (Eli Lilly and Company, priority 2015, dated 2017):
# Amino acid sequences for entries named in this document (tags omitted). Residues count along the entry.
# UniProt P47871, 26-477: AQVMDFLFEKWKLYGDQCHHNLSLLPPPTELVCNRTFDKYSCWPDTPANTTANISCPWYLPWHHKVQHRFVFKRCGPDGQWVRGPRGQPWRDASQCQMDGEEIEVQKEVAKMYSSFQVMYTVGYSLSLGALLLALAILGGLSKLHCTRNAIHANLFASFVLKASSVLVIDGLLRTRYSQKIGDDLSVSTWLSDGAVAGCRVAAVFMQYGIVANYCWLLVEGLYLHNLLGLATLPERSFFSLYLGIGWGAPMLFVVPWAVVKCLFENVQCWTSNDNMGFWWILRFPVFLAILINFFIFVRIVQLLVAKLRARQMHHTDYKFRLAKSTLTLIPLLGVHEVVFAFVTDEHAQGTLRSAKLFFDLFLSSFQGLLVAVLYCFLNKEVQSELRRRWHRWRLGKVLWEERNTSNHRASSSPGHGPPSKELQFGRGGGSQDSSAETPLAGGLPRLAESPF
# UniProt P43220, 24-463: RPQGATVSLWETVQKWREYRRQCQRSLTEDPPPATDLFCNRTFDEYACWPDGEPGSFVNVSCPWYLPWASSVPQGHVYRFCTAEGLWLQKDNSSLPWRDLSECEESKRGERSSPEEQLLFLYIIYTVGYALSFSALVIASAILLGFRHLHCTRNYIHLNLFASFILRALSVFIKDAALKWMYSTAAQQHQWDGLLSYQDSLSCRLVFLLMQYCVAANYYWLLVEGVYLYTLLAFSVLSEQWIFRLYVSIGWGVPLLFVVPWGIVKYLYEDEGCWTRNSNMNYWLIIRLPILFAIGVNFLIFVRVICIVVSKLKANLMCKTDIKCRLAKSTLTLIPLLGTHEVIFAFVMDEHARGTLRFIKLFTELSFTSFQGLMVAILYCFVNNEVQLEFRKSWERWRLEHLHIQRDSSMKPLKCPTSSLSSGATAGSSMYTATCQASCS
# UniProt P30082, 27-485: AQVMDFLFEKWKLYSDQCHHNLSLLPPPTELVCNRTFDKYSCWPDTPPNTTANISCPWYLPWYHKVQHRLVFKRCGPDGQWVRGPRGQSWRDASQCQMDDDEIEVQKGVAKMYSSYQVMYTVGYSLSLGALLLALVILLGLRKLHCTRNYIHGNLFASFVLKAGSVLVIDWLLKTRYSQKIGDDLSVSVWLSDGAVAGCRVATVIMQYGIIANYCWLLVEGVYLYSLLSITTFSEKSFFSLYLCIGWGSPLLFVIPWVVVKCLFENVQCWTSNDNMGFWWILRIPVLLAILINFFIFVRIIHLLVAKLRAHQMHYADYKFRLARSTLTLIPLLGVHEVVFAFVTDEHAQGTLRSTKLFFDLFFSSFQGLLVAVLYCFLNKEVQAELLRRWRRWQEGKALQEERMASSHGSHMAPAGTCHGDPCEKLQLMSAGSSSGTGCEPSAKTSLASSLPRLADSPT
# UniProt Q61606, 27-485: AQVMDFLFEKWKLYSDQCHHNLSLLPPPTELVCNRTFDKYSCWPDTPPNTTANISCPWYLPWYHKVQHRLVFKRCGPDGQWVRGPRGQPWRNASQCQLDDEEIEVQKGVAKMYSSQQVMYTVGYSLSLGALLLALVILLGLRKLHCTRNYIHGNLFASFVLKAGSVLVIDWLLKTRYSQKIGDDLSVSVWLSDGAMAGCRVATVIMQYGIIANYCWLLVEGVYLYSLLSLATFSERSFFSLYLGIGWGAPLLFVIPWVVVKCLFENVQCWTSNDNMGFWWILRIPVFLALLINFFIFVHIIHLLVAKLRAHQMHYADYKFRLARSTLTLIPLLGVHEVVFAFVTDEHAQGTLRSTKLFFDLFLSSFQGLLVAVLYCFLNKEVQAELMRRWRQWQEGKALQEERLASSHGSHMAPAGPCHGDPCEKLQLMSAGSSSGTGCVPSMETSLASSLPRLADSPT
# Where two headings read alike, the source gives them in different places.
# Legend:
# [1] = molecular target: T1, human glucagon receptor (hGcg-R) (Homo sapiens, UniProt P47871); assay: hGcg-R functional cAMP assay; format: cell-based; parameters: expressed in transfected cells; host or cells: 293HEK, plasmid phD, hygromycin selection
# [2] = molecular target: human Glucagon-Like Peptide-1 receptor (hGLP-1R) (Homo sapiens, UniProt P43220); assay: hGLP-1-R functional cAMP assay
# [3] = molecular target: T1, human glucagon receptor (hGcg-R); assay: Radioligand competition binding (SPA), hGcg-R membranes; parameters: expressed in transfected cells; crude plasma membranes; settings: mean ± SEM
# hGIP-R = molecular target: T2, hGIP-R (Homo sapiens, UniProt P48546); assay: hGIP-R functional cAMP assay; format: cell-based
# T2 construct: expressed in transfected cells; host or cells: CHO-S (Chinese Hamster Ovary, suspension), pcDNA3.1-NeoR, Geneticin selection
# T2 sequence (P48546 22-466): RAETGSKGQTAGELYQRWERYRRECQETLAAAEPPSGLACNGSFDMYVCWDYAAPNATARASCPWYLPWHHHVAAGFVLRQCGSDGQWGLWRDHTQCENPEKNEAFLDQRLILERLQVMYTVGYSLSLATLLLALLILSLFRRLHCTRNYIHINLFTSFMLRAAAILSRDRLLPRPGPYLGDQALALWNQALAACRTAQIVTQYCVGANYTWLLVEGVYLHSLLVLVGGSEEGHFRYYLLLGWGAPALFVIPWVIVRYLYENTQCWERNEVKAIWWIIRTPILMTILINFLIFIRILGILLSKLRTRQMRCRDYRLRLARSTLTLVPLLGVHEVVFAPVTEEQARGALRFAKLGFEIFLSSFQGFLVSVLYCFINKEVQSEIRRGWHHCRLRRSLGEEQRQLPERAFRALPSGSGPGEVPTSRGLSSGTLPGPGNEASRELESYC
# [4] = molecular target: T3, rat glucagon receptor (rGcg-R) (Rattus norvegicus, UniProt P30082); assay: Radioligand competition binding (SPA), rGcg-R membranes; settings: mean ± SEM
# T3 construct: expressed in transfected cells; host or cells: 293HEK, transient (48 h), pcDNA3.1-ZeoR; crude plasma membranes
# [5] = molecular target: T4, mouse glucagon receptor (mGcg-R) (Mus musculus, UniProt Q61606); assay: Radioligand competition binding (SPA), mGcg-R membranes; settings: mean ± SEM
# T4 construct: expressed in transfected cells; crude plasma membranes
# Pharmacokinetics in Rats = format: in vivo; settings: rat, plasma; male Sprague Dawley rats, single SC 100 nmol/kg
# [6] = cAMP, geometric mean ± SEM, read-out: hGcg-R EC50
# [7] = hGlp-1R EC50, cAMP, geometric mean ± SEM
# [8] = cAMP, geometric mean ± SEM, read-out: hGIP-R EC50
compound,measurement,setting,value
CC(C)C[C@H](NC(=O)[C@H](Cc1c[nH]c2ccccc12)NC(=O)[C@H](C)NC(=O)[C@@H](NC(=O)[C@H](Cc1ccccc1)NC(=O)[C@H](CCC(=O)O)NC(=O)[C@H](CCCCNC(=O)COCCOCCNC(=O)COCCOCCNC(=O)CC[C@H](NC(=O)CCCCCCCCCCCCCCCCCCC(=O)O)C(=O)O)NC(=O)[C@H](C)NC(=O)[C@H](CCCCN)NC(=O)[C@H](CCCCN)NC(=O)C(C)(C)NC(=O)[C@H](CC(=O)O)NC(=O)[C@H](CC(C)C)NC(=O)[C@H](Cc1ccc(O)cc1)NC(=O)[C@H](CCCCN)NC(=O)[C@H](CO)NC(=O)[C@H](Cc1ccc(O)cc1)NC(=O)[C@H](CC(=O)O)NC(=O)[C@H](CO)NC(=O)[C@@H](NC(=O)[C@H](Cc1ccccc1)NC(=O)[C@@H](NC(=O)CNC(=O)[C@H](CCC(N)=O)NC(=O)C(C)(C)NC(=O)[C@@H](N)Cc1ccc(O)cc1)[C@@H](C)O)[C@@H](C)O)C(C)C)C(=O)N[C@@H](CC(C)C)C(=O)N[C@@H](CCC(=O)O)C(=O)N[C@@H](CCC(=O)O)C(=O)O [Example 7],EC50,[1]; [6],0.0166 ± 0.0004 nM
same,EC50,[2]; [7],> 100 nM
same,Ki,[3],0.673 nM
same,EC50,hGIP-R; [8],> 500 nM
same,Ki,[4],1.38 nM
same,Ki,[5],0.753 nM
CC(C)C[C@H](NC(=O)[C@H](Cc1c[nH]c2ccccc12)NC(=O)[C@H](CCC(=O)O)NC(=O)[C@@H](NC(=O)[C@H](Cc1ccccc1)NC(=O)[C@H](CCC(=O)O)NC(=O)[C@H](CCCCNC(=O)COCCOCCNC(=O)COCCOCCNC(=O)CC[C@H](NC(=O)CC[C@H](NC(=O)CCCCCCCCCCCCCCCCC(=O)O)C(=O)O)C(=O)O)NC(=O)[C@H](C)NC(=O)[C@H](CCCCN)NC(=O)[C@H](CCCCN)NC(=O)C(C)(C)NC(=O)[C@H](CC(=O)O)NC(=O)[C@H](CC(C)C)NC(=O)[C@H](Cc1ccc(O)cc1)NC(=O)[C@H](CCCCN)NC(=O)[C@H](CO)NC(=O)[C@H](Cc1ccc(O)cc1)NC(=O)[C@H](CC(=O)O)NC(=O)[C@H](CO)NC(=O)[C@H](CC(C)C)NC(=O)[C@H](Cc1ccccc1)NC(=O)[C@@H](NC(=O)CNC(=O)[C@H](CCC(N)=O)NC(=O)C(C)(C)NC(=O)[C@@H](N)Cc1ccc(O)cc1)[C@@H](C)O)C(C)C)C(=O)N[C@@H](CC(C)C)C(=O)N[C@@H](CCC(=O)O)C(=O)N[C@H](C(=O)NCC(=O)N1CCC[C@H]1C(=O)N[C@@H](CO)C(=O)N[C@@H](CO)C(=O)NCC(=O)N[C@@H](C)C(=O)N1CCC[C@H]1C(=O)N1CCC[C@H]1C(=O)N1CCC[C@H]1C(=O)N[C@@H](CO)C(N)=O)[C@@H](C)O [Example 3],EC50,[1]; [6],0.0034 ± 0.0001 nM
same,EC50,"[1]; sample C6.5-4 C.-4 wk, N = 2 ± SD, read-out: EC50 Gcg Receptor Assay",0.0369 ± 0.0296 nM
same,EC50,"[1]; sample C6.5-40 C.-4 wk, N = 2 ± SD, read-out: EC50 Gcg Receptor Assay",0.0257 ± 0.0069 nM
same,EC50,"[1]; sample C6.5MT-4 C.-4 wk, N = 2 ± SD, read-out: EC50 Gcg Receptor Assay",0.0193 ± 0.0011 nM
same,EC50,"[1]; sample C6.5MT-40 C.-4 wk, N = 2 ± SD, read-out: EC50 Gcg Receptor Assay",0.0214 ± 0.0031 nM
same,EC50,"[1]; sample T7-4 C.-4 wk, N = 2 ± SD, read-out: EC50 Gcg Receptor Assay",0.0143 ± 0.0034 nM
same,EC50,"[1]; sample T7-40 C.-4 wk, N = 2 ± SD, read-out: EC50 Gcg Receptor Assay",0.0249 ± 0.0029 nM
same,EC50,"[1]; sample T7m-4 C.-4 wk, N = 2 ± SD, read-out: EC50 Gcg Receptor Assay",0.0211 ± 0.004 nM
same,EC50,"[1]; sample T7m-40 C.-4 wk, N = 2 ± SD, read-out: EC50 Gcg Receptor Assay",0.0211 ± 0.0051 nM
same,EC50,"[2]; EC50 GLP-1 Receptor Assay, sample C6.5-4 C.-4 wk, N = 2 ± SD",> 100 nM
same,EC50,"[2]; EC50 GLP-1 Receptor Assay, sample C6.5-40 C.-4 wk, N = 2 ± SD",> 100 nM
same,EC50,"[2]; EC50 GLP-1 Receptor Assay, sample C6.5MT-4 C.-4 wk, N = 2 ± SD",> 100 nM
same,EC50,"[2]; EC50 GLP-1 Receptor Assay, sample C6.5MT-40 C.-4 wk, N = 2 ± SD",> 100 nM
same,EC50,"[2]; EC50 GLP-1 Receptor Assay, sample T7-4 C.-4 wk, N = 2 ± SD, *N = 1",> 100 nM
same,EC50,"[2]; EC50 GLP-1 Receptor Assay, sample T7-40 C.-4 wk, N = 2 ± SD, *N = 1",> 100 nM
same,EC50,"[2]; EC50 GLP-1 Receptor Assay, sample T7m-4 C.-4 wk, N = 2 ± SD, *N = 1",> 100 nM
same,EC50,"[2]; EC50 GLP-1 Receptor Assay, sample T7m-40 C.-4 wk, N = 2 ± SD, *N = 1",> 100 nM
same,EC50,[2]; [7],> 100 nM
same,Ki,[3],0.287 ± 0.171 nM
same,EC50,hGIP-R; [8],> 500 nM
same,EC50,"hGIP-R; sample C6.5-4 C.-4 wk, read-out: EC50 GIP Receptor Assay",> 100 nM
same,EC50,"hGIP-R; sample C6.5-40 C.-4 wk, read-out: EC50 GIP Receptor Assay",> 100 nM
same,EC50,"hGIP-R; sample C6.5MT-4 C.-4 wk, read-out: EC50 GIP Receptor Assay",> 100 nM
same,EC50,"hGIP-R; sample C6.5MT-40 C.-4 wk, read-out: EC50 GIP Receptor Assay",> 100 nM
same,EC50,"hGIP-R; sample T7-4 C.-4 wk, N = 2 ± SD, *N = 1, read-out: EC50 GIP Receptor Assay",> 100 nM
same,EC50,"hGIP-R; sample T7-40 C.-4 wk, N = 2 ± SD, *N = 1, read-out: EC50 GIP Receptor Assay",> 100 nM
same,EC50,"hGIP-R; sample T7m-4 C.-4 wk, N = 2 ± SD, *N = 1, read-out: EC50 GIP Receptor Assay",> 100 nM
same,EC50,"hGIP-R; sample T7m-40 C.-4 wk, N = 2 ± SD, *N = 1, read-out: EC50 GIP Receptor Assay",> 100 nM
same,Ki,[4],1.56 ± 0.13 nM
same,AUC(0-inf),Pharmacokinetics in Rats,11.1 µM·h
same,CL/F,Pharmacokinetics in Rats,0.153 mL/min/kg
same,Cmax,Pharmacokinetics in Rats,394 nM
same,Tmax,Pharmacokinetics in Rats,8 h
same,half-life,Pharmacokinetics in Rats,11 h
same,Ki,[5],0.174 nM
CC(C)C[C@H](NC(=O)[C@H](Cc1c[nH]c2ccccc12)NC(=O)[C@H](CCC(=O)O)NC(=O)[C@@H](NC(=O)[C@H](Cc1ccccc1)NC(=O)[C@H](CCC(=O)O)NC(=O)[C@H](CCCCNC(=O)COCCOCCNC(=O)COCCOCCNC(=O)CC[C@H](NC(=O)CC[C@H](NC(=O)CCCCCCCCCCCCCCCCCCC(=O)O)C(=O)O)C(=O)O)NC(=O)[C@H](C)NC(=O)[C@H](CCCCN)NC(=O)[C@H](CCCCN)NC(=O)C(C)(C)NC(=O)[C@H](CC(=O)O)NC(=O)[C@H](CC(C)C)NC(=O)[C@H](Cc1ccc(O)cc1)NC(=O)[C@H](CCCCN)NC(=O)[C@H](CO)NC(=O)[C@H](Cc1ccc(O)cc1)NC(=O)[C@H](CC(=O)O)NC(=O)[C@H](CO)NC(=O)[C@@H](NC(=O)[C@H](Cc1ccccc1)NC(=O)[C@@H](NC(=O)CNC(=O)[C@H](CCC(N)=O)NC(=O)C(C)(C)NC(=O)[C@@H](N)Cc1ccc(O)cc1)[C@@H](C)O)[C@@H](C)O)C(C)C)C(=O)N[C@@H](CC(C)C)C(=O)N[C@@H](CCC(=O)O)C(=O)N[C@H](C(=O)NCC(=O)N1CCC[C@H]1C(=O)N[C@@H](CO)C(=O)N[C@@H](CO)C(=O)NCC(N)=O)[C@@H](C)O [Example 5],EC50,[1]; [6],0.016 ± 0.0038 nM
same,EC50,[2]; [7],27 ± 4.5 nM
same,Ki,[3],1.59 nM
same,EC50,hGIP-R; [8],> 500 nM
same,Ki,[4],4.36 nM
same,AUC(0-inf),Pharmacokinetics in Rats,12.9 µM·h
same,CL/F,Pharmacokinetics in Rats,0.13 mL/min/kg
same,Cmax,Pharmacokinetics in Rats,237 nM
same,Tmax,Pharmacokinetics in Rats,24 h
same,half-life,Pharmacokinetics in Rats,22 h
same,Ki,[5],1.58 nM
